From PMC9886266, “New [1,2,4]triazolo[4,3-c]quinazolines as intercalative Topo II inhibitors: Design, synthesis, biological evaluation, and in silico studies” (PLOS ONE, 2023)

Sequences of proteins named here, by UniProt entry; tags and fusion partners are left off. A change or cut given only in a name is not applied to a line headed by its entry.
UniProt P11388: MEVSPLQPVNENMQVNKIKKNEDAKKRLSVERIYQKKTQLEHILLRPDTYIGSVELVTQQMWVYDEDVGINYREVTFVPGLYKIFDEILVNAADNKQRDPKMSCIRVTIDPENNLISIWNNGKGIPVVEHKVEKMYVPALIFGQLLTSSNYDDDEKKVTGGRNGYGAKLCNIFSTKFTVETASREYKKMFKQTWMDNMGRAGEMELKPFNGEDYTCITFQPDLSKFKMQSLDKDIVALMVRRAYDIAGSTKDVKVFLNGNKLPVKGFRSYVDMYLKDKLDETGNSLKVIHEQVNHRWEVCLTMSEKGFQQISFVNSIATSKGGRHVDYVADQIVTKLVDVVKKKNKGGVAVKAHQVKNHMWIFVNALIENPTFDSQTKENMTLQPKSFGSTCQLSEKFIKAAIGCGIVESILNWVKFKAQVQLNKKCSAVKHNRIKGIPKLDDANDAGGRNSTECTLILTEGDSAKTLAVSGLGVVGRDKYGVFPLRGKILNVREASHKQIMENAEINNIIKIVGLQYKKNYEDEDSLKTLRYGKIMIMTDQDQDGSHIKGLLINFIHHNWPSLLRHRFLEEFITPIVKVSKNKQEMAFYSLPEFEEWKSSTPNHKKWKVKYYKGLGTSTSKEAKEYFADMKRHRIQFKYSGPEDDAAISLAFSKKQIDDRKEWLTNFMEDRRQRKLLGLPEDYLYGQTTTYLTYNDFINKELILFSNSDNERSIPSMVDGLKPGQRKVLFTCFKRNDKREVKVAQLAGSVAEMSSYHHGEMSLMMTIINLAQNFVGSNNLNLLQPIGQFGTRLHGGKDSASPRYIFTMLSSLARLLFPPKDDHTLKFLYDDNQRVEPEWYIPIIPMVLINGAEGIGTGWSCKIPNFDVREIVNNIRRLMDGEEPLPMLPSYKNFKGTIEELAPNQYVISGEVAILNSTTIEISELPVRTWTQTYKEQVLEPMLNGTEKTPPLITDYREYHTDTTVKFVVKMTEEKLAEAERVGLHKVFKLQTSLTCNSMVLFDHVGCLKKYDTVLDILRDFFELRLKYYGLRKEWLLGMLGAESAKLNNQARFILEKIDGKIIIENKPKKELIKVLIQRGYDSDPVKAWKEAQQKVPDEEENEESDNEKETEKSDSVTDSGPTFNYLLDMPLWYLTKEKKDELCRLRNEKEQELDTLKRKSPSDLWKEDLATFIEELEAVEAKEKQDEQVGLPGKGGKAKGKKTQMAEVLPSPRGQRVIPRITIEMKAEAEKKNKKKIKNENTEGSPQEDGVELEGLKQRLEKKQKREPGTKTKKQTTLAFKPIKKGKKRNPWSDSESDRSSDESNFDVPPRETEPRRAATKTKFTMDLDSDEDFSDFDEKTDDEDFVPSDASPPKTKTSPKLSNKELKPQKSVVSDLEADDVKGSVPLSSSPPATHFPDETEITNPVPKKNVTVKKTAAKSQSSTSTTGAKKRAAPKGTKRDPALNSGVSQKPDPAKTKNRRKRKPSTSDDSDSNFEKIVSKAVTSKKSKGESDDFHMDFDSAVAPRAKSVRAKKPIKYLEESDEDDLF

Molecular target: T1, Topoisomerase II (Topo II) (Homo sapiens, UniProt P11388)
T1 construct: purchased TopoGEN, Inc., Columbus
Test: In vitro Topo II inhibitory assay (TopoGEN Topo II drug screening kit)
Format: biochemical
Details: 50% inhibition of Topoisomerase II activity
Method: Doxorubicin as a potent Topo II inhibitor was utilized as a reference drug.
The reported method described by Patra et al was applied using Topo II drug screening kit (TopoGEN, Inc., Columbus). Doxorubicin was used as a positive control.
A typical enzyme reaction was structured to determine Topo II activity. The reaction mixture included Topo II (2 μl), substrate super coiled pHot1 DNA (0.25 μg), 50 μg/ml test compound (2 μl), and assay buffer (4 μl). To start the reaction, the mixture was allowed to incubate in 37°C for 30 min. To terminate the reaction, a mixture of 10% sodium dodecylsulphate (2 μl) and proteinase K (50 μg/mL) was added at 37°C for 15 min. then incubated for 15 min at 37°C.
After that, the DNA was run on 1% agarose gel in BioRad gel electrophoresis system for 1–2 h followed by staining with GelRedTM stain for 2 h and destained for 15 min with TAE buffer. The gel was imaged via BioRad’s Gel DocTMEZ system. […] The results of IC50 values were calculated using the GraphPad Prism version 7. […]
analyzed for their Topo II inhibitory activities. […]
After that, the DNA was run on 1% agarose gel in BioRad gel electrophoresis system for 1–2 h followed by staining with GelRedTM stain for 2 h and destained for 15 min with TAE buffer. […] The results of IC50 values were calculated using the GraphPad Prism version 7. […]

IC50: 8.23 ± 0.4 µM
SMILES: COc1cccc2c1C(=O)c1c(O)c3c(c(O)c1C2=O)C[C@@](O)(C(=O)CO)C[C@@H]3O[C@H]1C[C@H](N)[C@H](O)[C@H](C)O1 [Doxorubicin, reference compound]
